Assay results as given in patent USRE33024E, “Bronchodilating 8-hydroxy-5-(1R)-1-hydroxy-2-(N-((1R)-2-(p-methoxyphenyl)-1-methylethyl) -amino)ethyl) carbostyril and intermediates thereof” (Tanabe Seiyaku Co. Ltd., priority 1983, dated 1989).

Key:
[1] = tested on: isolated tracheal muscle preparations of Male Hartley guinea pigs; assay: Bronchodilating activity: relaxation of histamine-induced contraction of isolated tracheal muscle preparations (Magnus' method); set-up: species or system guinea pig (Male Hartley); details: for Potency ratio (to Isoproterenol): from molar concentration giving 50% relaxation of histamine-induced tracheal contraction, histamine 2HCl 1×10^-5 g/ml, Tyrode's solution 37° C.
Description: Isolated tracheal muscle preparations of Male Hartley guinea pigs (body weight: 430-645 g) were used to estimate the bronchodilating activity of a test compound according to Magnus' method. The preparation was suspended in an organ bath filled with 20 ml of Tyrode's solution (37° C.), and said solution was continuously bubbled with air. Histamine 2HCl was added to the bath (final concentration; 1×10^-5 g/ml) and the test compound was added thereto about 15 minutes after the addition of histamine 2HCl. Tension changes in the tracheal smooth muscle were recorded isometrically with a force-displacement transducer. Molar conentration of the test compound which produced 50% relaxation of the histamine-induced tracheal contraction were estimated from the concentration-response curve, and the potency ratio of the test compound to Isoproterenol was calculated therefrom.

in vivo = details: mouse, iv
Description: A test compound was dissolved in 5% glucose solution, and the test compound solution (0.2 ml/10 g of body weight) was administered intravenously to Male ddY strain mice (body weight: 25-28 g). The LD50 of the test compound was estimated by the Up and Down method.

[2] = tested on: β2-adrenoceptor / β1-adrenoceptor; details: β1: positive chronotropic action (e.g., increase in heart rate)

Compound	Potency ratio (to Isoproterenol) [1]	selectivity ratio (in vivo)	β2-adrenoceptor stimulating action (in words) (β2-adrenoceptor)	potency ratio of the β2-adrenoceptor stimulating action to the β1-adrenoceptor stimulating action (in words) [2]	bronchodilating activity (in words) [1]
COc1ccc(C[C@@H](C)NC[C@H](O)c2ccc(O)c3[nH]c(=O)ccc23)cc1 (relative stereo) [Comp. No. 2, 8-hydroxy-5-{1-hydroxy-2-[N-(2-(p-methoxyphenyl)-1-methylethyl)amino]ethyl}carbotyril (α-isomer) hydrochloride]	78	510000			
COc1ccc(C[C@@H](C)NC[C@H](O)c2ccc(O)c3[nH]c(=O)ccc23)cc1.Cl [Comp. No. 1, 8-hydroxy-5-{(1R)-1-hydroxy-2-[N-((1R)-2-(p-methoxyphenyl)-1-methylethyl)amino]ethyl}carbostyril hydrochloride]	166	940000			
COc1ccc(CC(C)NCC(O)c2ccc(O)c3[nH]c(=O)ccc23)cc1 (centres unmarked) [Comp. No. 3, 8Hydroxy-5-{1hydroxy-2-[N--(2op-methoxy-phenyl)-1-methylethyliamino]ethylcarbostyril hydrochloride]	52				
COc1ccc(CC(C)NCC(O)c2ccc(O)c3[nH]c(=O)ccc23)cc1 (centres unmarked) [compound (I)]			potent	high	potent

Where a name gives a salt, the structure may show the parent alone.
